Measurements: patent publication US10556902B2 (Asceneuron SA, priority 2016, dated 2020)

By UniProt entry, the sequences of proteins in these tests, tags left out. Where a name states a change or a piece, a line headed by the entry shows the natural chain unless it says otherwise.
UniProt O60502: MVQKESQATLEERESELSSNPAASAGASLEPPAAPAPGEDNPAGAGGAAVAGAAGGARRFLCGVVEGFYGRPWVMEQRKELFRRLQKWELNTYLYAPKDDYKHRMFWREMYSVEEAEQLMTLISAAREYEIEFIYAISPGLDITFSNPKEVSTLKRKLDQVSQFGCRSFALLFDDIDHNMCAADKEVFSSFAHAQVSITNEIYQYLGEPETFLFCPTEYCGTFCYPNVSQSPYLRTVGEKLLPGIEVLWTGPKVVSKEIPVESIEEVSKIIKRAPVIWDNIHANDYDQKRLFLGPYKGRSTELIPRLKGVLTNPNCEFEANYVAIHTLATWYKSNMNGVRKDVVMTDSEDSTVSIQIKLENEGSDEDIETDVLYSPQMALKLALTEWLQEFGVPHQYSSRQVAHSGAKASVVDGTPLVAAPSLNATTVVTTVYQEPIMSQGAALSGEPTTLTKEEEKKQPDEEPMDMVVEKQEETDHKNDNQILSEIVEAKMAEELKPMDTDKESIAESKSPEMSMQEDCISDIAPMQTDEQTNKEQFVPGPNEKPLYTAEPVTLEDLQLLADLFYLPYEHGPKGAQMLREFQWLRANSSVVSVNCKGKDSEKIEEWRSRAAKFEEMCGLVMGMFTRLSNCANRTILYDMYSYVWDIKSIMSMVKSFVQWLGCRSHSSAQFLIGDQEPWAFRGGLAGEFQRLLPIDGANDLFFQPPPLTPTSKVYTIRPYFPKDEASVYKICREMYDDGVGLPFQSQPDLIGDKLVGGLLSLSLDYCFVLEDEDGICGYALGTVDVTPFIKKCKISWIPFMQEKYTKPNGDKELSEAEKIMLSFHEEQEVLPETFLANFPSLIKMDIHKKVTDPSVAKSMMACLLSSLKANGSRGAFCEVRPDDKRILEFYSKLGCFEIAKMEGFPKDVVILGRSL

Molecular target: His-Tagged hOGA (human O-GlcNAcase) (Homo sapiens (Human), UniProt O60502)
Assay: Human O-GlcNAcase enzyme inhibition assay;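 further: reactions contained 20 nM His-tagged hOGA enzyme with 10 µM FL-GlcNAc substrate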
Assay type: biochemical
Details: OGA enzyme inhibition assay; FL-GlcNAc substrate, pH 6.5; activity classes defined in μM
Description: Then, 20 nM of His-Tagged hOGA and 10 μM of FL-GlcNAc (Fluorescein mono-beta-D-(2-deoxy-2-N-acetyl) glucopyranoside; Marker Gene Technologies Inc, M1485) were added to the 384-well plate for a final volume of 20 μl.

IC50: 0.05 to 0.2 µM
Substance: N-(6-(4-(1-(quinoxalin-6-yl)ethyl)piperazin-1-yl)pyridin-3-yl)acetamide [Example 46]
